Laboratory results from patent US8853236B2, “Formulations containing clopidogrel and sulfoalkyl ether cyclodextrin and methods of use” (Cydex Pharmaceuticals, Inc., priority 2007, dated 2014).
“And” between values parts separate entries of the source, which are not always exact repeats. Identical values can stand only once. Like-named read-outs stand apart in the source and are kept apart here.

Assays:
[1] = cited from earlier work
[2] = FIG. 6b, 25° C., water, pH 5.5
[3] = Solubility of clopidogrel bisulfate with surfactant, with or without Captisol (Example 14); details: thermodynamic from solid, Concentration of Clopidogrel Solubilized, pH about 5.5

Structure (SMILES): COC(=O)[C@H](c1ccccc1Cl)N1CCc2sccc2C1.O=S(=O)(O)O [clopidogrel bisulfate, methyl (+)-(S)-α-(2-chlorophenyl)-6,7-dihydrothieno[3,2-c]pyridine-5(4H)-acetate sulfate (1:1)]
- solubility in water ([1]; neutral pH): practically insoluble
- solubility in water ([1]; pH 1): freely soluble
- solubility (physchem; pH 3, aqueous buffer): ~5000 µg/mL
- solubility (physchem; pH 3.5, aqueous buffer): ~1790 µg/mL
- solubility (physchem; pH 4, aqueous buffer): ~279 µg/mL
- solubility (physchem; pH 4.5, aqueous buffer): ~171 µg/mL
- solubility (physchem; pH 5.12, aqueous buffer): ~83 µg/mL
- solubility (physchem; pH 6.6, aqueous buffer): ~82 µg/mL
- slope of the phase solubility line (clopidogrel M versus SAE-CD M) [2]: about 0.15
- solubility ([3]; 20 °C, pH 5.5, aqueous buffer, Table 14b: Captisol 0, Tween 80 0 (0%)): 0.3 mM
- solubility ([3]; 20 °C, pH 5.5, aqueous buffer, Table 14d: Captisol 0, Solutol 0 (0%)): 15 mM
- solubility ([3]; 20 °C, pH 5.5, aqueous with cosolvent or surfactant or cyclodextrin, Captisol 0, Solutol 10 mg/ml (1%)): 8000 µM and 2500 µg/mL
- solubility ([3]; 20 °C, pH 5.5, aqueous with cosolvent or surfactant or cyclodextrin, Captisol 0, Solutol 25 mg/ml (2.5%)): 29 mM
- solubility ([3]; 20 °C, pH 5.5, aqueous with cosolvent or surfactant or cyclodextrin, Captisol 0, Solutol 50 mg/ml (5%)): 63 mM
- solubility ([3]; 20 °C, pH 5.5, aqueous with cosolvent or surfactant or cyclodextrin, Captisol 0, Solutol 100 mg/ml (10%)): 95 mM
- solubility ([3]; 20 °C, pH 5.5, aqueous with cosolvent or surfactant or cyclodextrin, Captisol 0, Tween 80 0.00076 M (0.1%)): 5 mM
- solubility ([3]; 20 °C, pH 5.5, aqueous with cosolvent or surfactant or cyclodextrin, Captisol 0, Tween 80 0.004 M (0.5%)): 47 mM
- solubility ([3]; 20 °C, pH 5.5, aqueous with cosolvent or surfactant or cyclodextrin, Captisol 0, Tween 80 0.008 M (1%)): 56 mM
- solubility ([3]; 20 °C, pH 5.5, aqueous with cosolvent or surfactant or cyclodextrin, Captisol 0, Tween 80 0.038 M (5%)): 124 mM
- solubility ([3]; 20 °C, pH 5.5, aqueous with cosolvent or surfactant or cyclodextrin, Captisol 0, Tween 80 0.076 M (10%)): 101 mM
- solubility ([3]; 20 °C, pH 5.5, aqueous with cosolvent or surfactant or cyclodextrin, Captisol 0, Tween 80 […] (2%)): 50 mM
- solubility ([3]; 20 °C, pH 5.5, aqueous with cosolvent or surfactant or cyclodextrin, Captisol 0.92 M (20% w/v), Solutol 10 mg/ml (1%)): 21 mM
- solubility ([3]; 20 °C, pH 5.5, aqueous with cosolvent or surfactant or cyclodextrin, Captisol 0.92 M (20% w/v), Solutol 25 mg/ml (2.5%)): 43 mM
- solubility ([3]; 20 °C, pH 5.5, aqueous with cosolvent or surfactant or cyclodextrin, Captisol 0.92 M (20% w/v), Solutol 50 mg/ml (5%)): 67 mM
- solubility ([3]; 20 °C, pH 5.5, aqueous with cosolvent or surfactant or cyclodextrin, Captisol 0.92 M (20% w/v), Solutol 100 mg/ml (10%)): 71 mM
- solubility ([3]; 20 °C, pH 5.5, aqueous with cosolvent or surfactant or cyclodextrin, Captisol 0.92 M (20% w/v), Tween 80 0.00076 M (0.1%)): 7 mM
- solubility ([3]; 20 °C, pH 5.5, aqueous with cosolvent or surfactant or cyclodextrin, Captisol 0.92 M (20% w/v), Tween 80 0.004 M (0.5%)): 23 mM
- solubility ([3]; 20 °C, pH 5.5, aqueous with cosolvent or surfactant or cyclodextrin, Captisol 0.92 M (20% w/v), Tween 80 0.008 M (1%)): 56 mM
- solubility ([3]; 20 °C, pH 5.5, aqueous with cosolvent or surfactant or cyclodextrin, Captisol 0.92 M (20% w/v), Tween 80 0.038 M (5%)): 78 mM
- solubility ([3]; 20 °C, pH 5.5, aqueous with cosolvent or surfactant or cyclodextrin, Captisol 0.92 M (20% w/v), Tween 80 0.076 M (10%)): 29 mM
- solubility ([3]; 20 °C, pH 5.5, aqueous with cosolvent or surfactant or cyclodextrin, Captisol 0.92 M (20% w/v), Tween 80 […] (2%)): 64 mM
- solubility ([3]; 20 °C, pH 5.5, aqueous with cosolvent or surfactant or cyclodextrin, Table 14a: Captisol 0.92 M (20% w/v), Tween 80 0 (0%)): 15 mM
- solubility ([3]; 20 °C, pH 5.5, aqueous with cosolvent or surfactant or cyclodextrin, Table 14c: Captisol 0.92 M (20% w/v), Solutol 0 (0%)): 15 mM
- solubility ([3]; 22.5 °C, pH 5.5, aqueous buffer, Table 14b: Captisol 0, Tween 80 0 (0%)): 110 µg/mL
- solubility ([3]; 22.5 °C, pH 5.5, aqueous buffer, Table 14d: Captisol 0, Solutol 0 (0%)): 4690 µg/mL
- solubility ([3]; 22.5 °C, pH 5.5, aqueous with cosolvent or surfactant or cyclodextrin, Captisol 0, Solutol 25 mg/ml (2.5%)): 9340 µg/mL
- solubility ([3]; 22.5 °C, pH 5.5, aqueous with cosolvent or surfactant or cyclodextrin, Captisol 0, Solutol 50 mg/ml (5%)): 20300 µg/mL
- solubility ([3]; 22.5 °C, pH 5.5, aqueous with cosolvent or surfactant or cyclodextrin, Captisol 0, Solutol 100 mg/ml (10%)): 30700 µg/mL
- solubility ([3]; 22.5 °C, pH 5.5, aqueous with cosolvent or surfactant or cyclodextrin, Captisol 0, Tween 80 0.00076 M (0.1%)): 1670 µg/mL
- solubility ([3]; 22.5 °C, pH 5.5, aqueous with cosolvent or surfactant or cyclodextrin, Captisol 0, Tween 80 0.004 M (0.5%)): 8890 µg/mL
- solubility ([3]; 22.5 °C, pH 5.5, aqueous with cosolvent or surfactant or cyclodextrin, Captisol 0, Tween 80 0.008 M (1%)): 15200 µg/mL
- solubility ([3]; 22.5 °C, pH 5.5, aqueous with cosolvent or surfactant or cyclodextrin, Captisol 0, Tween 80 0.038 M (5%)): 39900 µg/mL
- solubility ([3]; 22.5 °C, pH 5.5, aqueous with cosolvent or surfactant or cyclodextrin, Captisol 0, Tween 80 0.076 M (10%)): 32600 µg/mL
- solubility ([3]; 22.5 °C, pH 5.5, aqueous with cosolvent or surfactant or cyclodextrin, Captisol 0, Tween 80 […] (2%)): 16000 µg/mL
- solubility ([3]; 22.5 °C, pH 5.5, aqueous with cosolvent or surfactant or cyclodextrin, Captisol 0.92 M (20% w/v), Solutol 10 mg/ml (1%)): 8900 µg/mL
- solubility ([3]; 22.5 °C, pH 5.5, aqueous with cosolvent or surfactant or cyclodextrin, Captisol 0.92 M (20% w/v), Solutol 25 mg/ml (2.5%)): 17600 µg/mL
- solubility ([3]; 22.5 °C, pH 5.5, aqueous with cosolvent or surfactant or cyclodextrin, Captisol 0.92 M (20% w/v), Solutol 50 mg/ml (5%)): 28000 µg/mL
- solubility ([3]; 22.5 °C, pH 5.5, aqueous with cosolvent or surfactant or cyclodextrin, Captisol 0.92 M (20% w/v), Solutol 100 mg/ml (10%)): 29800 µg/mL
- solubility ([3]; 22.5 °C, pH 5.5, aqueous with cosolvent or surfactant or cyclodextrin, Captisol 0.92 M (20% w/v), Tween 80 0.00076 M (0.1%)): 2300 µg/mL
- solubility ([3]; 22.5 °C, pH 5.5, aqueous with cosolvent or surfactant or cyclodextrin, Captisol 0.92 M (20% w/v), Tween 80 0.004 M (0.5%)): 7400 µg/mL
- solubility ([3]; 22.5 °C, pH 5.5, aqueous with cosolvent or surfactant or cyclodextrin, Captisol 0.92 M (20% w/v), Tween 80 0.008 M (1%)): 18100 µg/mL
- solubility ([3]; 22.5 °C, pH 5.5, aqueous with cosolvent or surfactant or cyclodextrin, Captisol 0.92 M (20% w/v), Tween 80 0.038 M (5%)): 25100 µg/mL
- solubility ([3]; 22.5 °C, pH 5.5, aqueous with cosolvent or surfactant or cyclodextrin, Captisol 0.92 M (20% w/v), Tween 80 0.076 M (10%)): 9220 µg/mL
- solubility ([3]; 22.5 °C, pH 5.5, aqueous with cosolvent or surfactant or cyclodextrin, Captisol 0.92 M (20% w/v), Tween 80 […] (2%)): 20800 µg/mL
- solubility ([3]; 22.5 °C, pH 5.5, aqueous with cosolvent or surfactant or cyclodextrin, Table 14a: Captisol 0.92 M (20% w/v), Tween 80 0 (0%)): 4690 µg/mL
- solubility ([3]; 22.5 °C, pH 5.5, aqueous with cosolvent or surfactant or cyclodextrin, Table 14c: Captisol 0.92 M (20% w/v), Solutol 0 (0%)): 4690 µg/mL
